{"source": "paper PMC11311241", "about": "“In Situ Forming, Enzyme-Responsive Peptoid-Peptide Hydrogels: An Advanced Long-Acting Injectable Drug Delivery System” (Journal of the American Chemical Society, 2024)", "system": "alkaline phosphatase", "conditions": "strain sweep 0.1–1000%, 37 °C, 2.5 rad s-1, 5% w/v gels", "excerpt": "Our drug delivery system is partly defined by drug diffusion from the hydrogel matrix, and hydrolysis of the peptoid-peptide-drug chemical linker. Reproducing supramolecular gels’ mechanical properties is difficult, especially for peptide-based systems. Experimental parameters and formulation factors are particularly important, as highlighted recently by the Adams and Draper groups.[77],[78] Subtle experimental influences e.g. handling and temperature, can lead to issues with reproducibility. […] Loss (G″) and storage (G′) moduli, critical strain (%) and oscillatory time sweeps were performed to determine the rheological changes with time and the potential for rapid in situ hydrogel depot formation upon exposure to 3.98 U mL^–1 phosphatase enzyme. […] Hydrogel formation occurs when the storage modulus (G′) is at least 1 order of magnitude greater than the loss modulus (G″).[79]\nRapid gelation is important for in situ formation of drug delivery depots to reduce the diffusion of drug(s) from the depot and potential burst release. […]\nAnton Paar MCR302 rheometer (Anton Paar, St Albans, UK). […] Gel strength was measured by determining the strain at which the gels […]", "data": [{"substance": "tetrabenzylamine-tetraglycine-L-lysine-O-phospho-L-tyrosine [(NPhe)4GGGGKY(p)-OH]", "values": [{"measurement": "Strain at complete deformation (G′ and G″ intersect)", "result": "~92", "unit": "%"}]}]}
